## Apparent affinities of Ab-14 variants for a coronavirus HR2 peptide

Source: Engelhart et al. 2022 (doi:10.1038/s41597-022-01779-4), MIT Lincoln Laboratory and A-Alpha Bio; data file from the FLAb repository.

Target: peptide PDVDLGDISGINAS, taken from heptad repeat 2 (HR2) of SARS-CoV-2 spike.

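Phage display of a naive human antibody library on the peptide gave the parent. Variants in AAYL50 differ from the parent at up to three CDR positions; double and triple changes were sampled at random. Affinity was read by AlphaSeq, a pooled yeast mating assay with surface-displayed partners. Binding brings cells together so that they mate, and sequencing counts the barcode pairs among the diploids. Each replicate has its own calibration line, from reference interactions of the BCL2 family. Mating was done three times.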

Parent scFv Ab-14: VH joined to VL by the linker GGGGSGGGGSGGGGS. Changes lie in the light chain CDRs alone.
VH: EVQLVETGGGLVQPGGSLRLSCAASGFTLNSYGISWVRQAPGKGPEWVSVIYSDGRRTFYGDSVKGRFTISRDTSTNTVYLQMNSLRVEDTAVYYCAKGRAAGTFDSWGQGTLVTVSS
VL: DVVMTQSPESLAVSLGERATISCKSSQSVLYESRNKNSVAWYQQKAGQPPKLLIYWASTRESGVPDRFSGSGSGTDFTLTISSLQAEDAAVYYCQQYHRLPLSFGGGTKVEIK

Variants are written as CDR1, CDR2 and CDR3 of the light chain (limits as in the source). Parent: KSSQSVLYESRNKNSVA, WASTRES, QQYHRLPLS.
Affinities are written as log10 Kd with Kd in nM; a lower number is a better binder.
Where no diploid with the target was found in that replicate, the entry reads "n.d.": below detection, most likely a poor binder, though not proof of it.

{"CDR-L1": "KSCQSVLYESRNKNSVL", "CDR-L2": "WASTRES", "CDR-L3": "QQYRRLPLS", "log10 Kd, replicates": "n.d. n.d. n.d.", "control signals": "2 of 9 (4.07)"}
{"CDR-L1": "KSSQSVLYESRLKNSYA", "CDR-L2": "WASTRES", "CDR-L3": "QQPHRLPLS", "log10 Kd, replicates": "n.d. n.d. n.d.", "control signals": "0 of 9"}
{"CDR-L1": "KSSQSVLYESPNKNSVA", "CDR-L2": "WASTYES", "CDR-L3": "KQYHRLPLS", "log10 Kd, replicates": "n.d. n.d. n.d.", "control signals": "1 of 9 (3.43)"}
{"CDR-L1": "KSSQCVLYESRNKVSVA", "CDR-L2": "WASTRES", "CDR-L3": "SQYHRLPLS", "log10 Kd, replicates": "n.d. n.d. 4.07", "control signals": "0 of 9"}
{"CDR-L1": "KSSQSVLPESRNKNSVV", "CDR-L2": "WAATRES", "CDR-L3": "QQYHRLPLS", "log10 Kd, replicates": "3.82 n.d. n.d.", "control signals": "0 of 9"}
{"CDR-L1": "KSSQSVWYERRNKNSVA", "CDR-L2": "WASTRES", "CDR-L3": "QVYHRLPLS", "log10 Kd, replicates": "1.43 1.44 1.48", "control signals": "0 of 9"}
{"CDR-L1": "KSSQSVLYESRNMNSVA", "CDR-L2": "WCSTRES", "CDR-L3": "QQYHHLPLS", "log10 Kd, replicates": "1.56 1.63 1.55", "control signals": "1 of 9 (4.32)"}
{"CDR-L1": "KSSGSVLYESRLKNSVA", "CDR-L2": "WASTRES", "CDR-L3": "QQYHRLPLH", "log10 Kd, replicates": "1.84 2.06 2.35", "control signals": "1 of 9 (3.83)"}
{"CDR-L1": "KSSQSVLYESFNKNSVA", "CDR-L2": "WASTWES", "CDR-L3": "QQHHRLPLS", "log10 Kd, replicates": "n.d. n.d. 5.92", "control signals": "1 of 9 (5.07)"}
{"CDR-L1": "KSSQSVLYESRNKNSVA", "CDR-L2": "WASTRES", "CDR-L3": "QNGQRLPLS", "log10 Kd, replicates": "n.d. n.d. n.d.", "control signals": "0 of 9"}
{"CDR-L1": "KSSQSVDYESRKKNSVA", "CDR-L2": "WASTRES", "CDR-L3": "VQYHRLPLS", "log10 Kd, replicates": "1.51 1.54 1.91", "control signals": "4 of 9 (4.57)"}
{"CDR-L1": "KSQQSVLYESRNKPSVA", "CDR-L2": "WASTRES", "CDR-L3": "QQYGRLPLS", "log10 Kd, replicates": "2.32 2.32 2.55", "control signals": "4 of 9 (3.97)"}
{"CDR-L1": "KSSQSVLYESFNKNSVA", "CDR-L2": "TMSTRES", "CDR-L3": "QQYHRLPLS", "log10 Kd, replicates": "2.75 2.18 2.41", "control signals": "0 of 9"}
{"CDR-L1": "KSSQSVLYESRNKNSVA", "CDR-L2": "WASTRES", "CDR-L3": "QQLHRLALS", "log10 Kd, replicates": "2.10 1.93 1.94", "control signals": "2 of 9 (4.03)"}
{"CDR-L1": "KSSQSRLYESRNKNSVA", "CDR-L2": "WASTRES", "CDR-L3": "QQGHRLPLH", "log10 Kd, replicates": "n.d. n.d. n.d.", "control signals": "0 of 9"}
{"CDR-L1": "KGSQNVLYESYNKNSVA", "CDR-L2": "WASTRES", "CDR-L3": "QQYHRLPLS", "log10 Kd, replicates": "1.16 1.24 1.20", "control signals": "1 of 9 (3.77)"}
{"CDR-L1": "KSSQSVLYESRLKNSVT", "CDR-L2": "WASTREI", "CDR-L3": "QQYHRLPLS", "log10 Kd, replicates": "4.04 n.d. n.d.", "control signals": "4 of 9 (3.92)"}
{"CDR-L1": "KSSQSVLYESRNKNSFA", "CDR-L2": "WASTTES", "CDR-L3": "QSYHRLPLS", "log10 Kd, replicates": "n.d. n.d. n.d.", "control signals": "1 of 9 (4.96)"}
{"CDR-L1": "KSSQSVLYMSRNKNSVA", "CDR-L2": "WASTRES", "CDR-L3": "QQYHRRPRS", "log10 Kd, replicates": "2.90 2.79 2.84", "control signals": "3 of 9 (3.82)"}
{"CDR-L1": "KSSQSVLYESRNKNSVA", "CDR-L2": "WASTRES", "CDR-L3": "QQYHKLPLS", "log10 Kd, replicates": "0.62 0.88 0.65", "control signals": "1 of 9 (4.78)"}
{"CDR-L1": "KSSQSVLYETRNKNSVA", "CDR-L2": "WASTRES", "CDR-L3": "QEYHRLPLS", "log10 Kd, replicates": "1.99 1.86 n.d.", "control signals": "0 of 9"}
{"CDR-L1": "KSSQSVLYESRNKNSVA", "CDR-L2": "WAGTRES", "CDR-L3": "QHYHRLELS", "log10 Kd, replicates": "n.d. n.d. n.d.", "control signals": "0 of 9"}
{"CDR-L1": "KSSQSVLYESRTKNSMA", "CDR-L2": "WASTRES", "CDR-L3": "QQYHCLPLS", "log10 Kd, replicates": "1.87 1.66 1.56", "control signals": "1 of 9 (4.43)"}
{"CDR-L1": "KSAQSVLYESRNKNSVA", "CDR-L2": "NASTRES", "CDR-L3": "QQYHRLILS", "log10 Kd, replicates": "n.d. 3.64 3.26", "control signals": "3 of 9 (3.57)"}
{"CDR-L1": "KSSQSVLYESRNKNSVA", "CDR-L2": "WALTRES", "CDR-L3": "QQYHRLPLS", "log10 Kd, replicates": "2.41 2.13 2.52", "control signals": "0 of 9"}
{"CDR-L1": "KSSQSVLVTSRNKNSVA", "CDR-L2": "WASTRES", "CDR-L3": "QQYHRLRLS", "log10 Kd, replicates": "n.d. n.d. n.d.", "control signals": "2 of 9 (3.96)"}

The closing 3 entries, repeated:

{"CDR-L1": "KSAQSVLYESRNKNSVA", "CDR-L2": "NASTRES", "CDR-L3": "QQYHRLILS", "log10 Kd, replicates": "n.d. 3.64 3.26", "control signals": "3 of 9 (3.57)"}
{"CDR-L1": "KSSQSVLYESRNKNSVA", "CDR-L2": "WALTRES", "CDR-L3": "QQYHRLPLS", "log10 Kd, replicates": "2.41 2.13 2.52", "control signals": "0 of 9"}
{"CDR-L1": "KSSQSVLVTSRNKNSVA", "CDR-L2": "WASTRES", "CDR-L3": "QQYHRLRLS", "log10 Kd, replicates": "n.d. n.d. n.d.", "control signals": "2 of 9 (3.96)"}

As a blank, each scFv also met three strains without target: over library AAYL50, 18% of these pairings were detected, typically at 4.19 and seldom below 2.99. Also given: how often the same scFv was detected with the empty control strains, with their mean in brackets.